Results published in article PMC9375819 (EJNMMI Research, 2022).

Amino acid sequences for entries named in this document (tags omitted). A change or cut given only in a name is not applied to a line headed by its entry.
UniProt Q13315: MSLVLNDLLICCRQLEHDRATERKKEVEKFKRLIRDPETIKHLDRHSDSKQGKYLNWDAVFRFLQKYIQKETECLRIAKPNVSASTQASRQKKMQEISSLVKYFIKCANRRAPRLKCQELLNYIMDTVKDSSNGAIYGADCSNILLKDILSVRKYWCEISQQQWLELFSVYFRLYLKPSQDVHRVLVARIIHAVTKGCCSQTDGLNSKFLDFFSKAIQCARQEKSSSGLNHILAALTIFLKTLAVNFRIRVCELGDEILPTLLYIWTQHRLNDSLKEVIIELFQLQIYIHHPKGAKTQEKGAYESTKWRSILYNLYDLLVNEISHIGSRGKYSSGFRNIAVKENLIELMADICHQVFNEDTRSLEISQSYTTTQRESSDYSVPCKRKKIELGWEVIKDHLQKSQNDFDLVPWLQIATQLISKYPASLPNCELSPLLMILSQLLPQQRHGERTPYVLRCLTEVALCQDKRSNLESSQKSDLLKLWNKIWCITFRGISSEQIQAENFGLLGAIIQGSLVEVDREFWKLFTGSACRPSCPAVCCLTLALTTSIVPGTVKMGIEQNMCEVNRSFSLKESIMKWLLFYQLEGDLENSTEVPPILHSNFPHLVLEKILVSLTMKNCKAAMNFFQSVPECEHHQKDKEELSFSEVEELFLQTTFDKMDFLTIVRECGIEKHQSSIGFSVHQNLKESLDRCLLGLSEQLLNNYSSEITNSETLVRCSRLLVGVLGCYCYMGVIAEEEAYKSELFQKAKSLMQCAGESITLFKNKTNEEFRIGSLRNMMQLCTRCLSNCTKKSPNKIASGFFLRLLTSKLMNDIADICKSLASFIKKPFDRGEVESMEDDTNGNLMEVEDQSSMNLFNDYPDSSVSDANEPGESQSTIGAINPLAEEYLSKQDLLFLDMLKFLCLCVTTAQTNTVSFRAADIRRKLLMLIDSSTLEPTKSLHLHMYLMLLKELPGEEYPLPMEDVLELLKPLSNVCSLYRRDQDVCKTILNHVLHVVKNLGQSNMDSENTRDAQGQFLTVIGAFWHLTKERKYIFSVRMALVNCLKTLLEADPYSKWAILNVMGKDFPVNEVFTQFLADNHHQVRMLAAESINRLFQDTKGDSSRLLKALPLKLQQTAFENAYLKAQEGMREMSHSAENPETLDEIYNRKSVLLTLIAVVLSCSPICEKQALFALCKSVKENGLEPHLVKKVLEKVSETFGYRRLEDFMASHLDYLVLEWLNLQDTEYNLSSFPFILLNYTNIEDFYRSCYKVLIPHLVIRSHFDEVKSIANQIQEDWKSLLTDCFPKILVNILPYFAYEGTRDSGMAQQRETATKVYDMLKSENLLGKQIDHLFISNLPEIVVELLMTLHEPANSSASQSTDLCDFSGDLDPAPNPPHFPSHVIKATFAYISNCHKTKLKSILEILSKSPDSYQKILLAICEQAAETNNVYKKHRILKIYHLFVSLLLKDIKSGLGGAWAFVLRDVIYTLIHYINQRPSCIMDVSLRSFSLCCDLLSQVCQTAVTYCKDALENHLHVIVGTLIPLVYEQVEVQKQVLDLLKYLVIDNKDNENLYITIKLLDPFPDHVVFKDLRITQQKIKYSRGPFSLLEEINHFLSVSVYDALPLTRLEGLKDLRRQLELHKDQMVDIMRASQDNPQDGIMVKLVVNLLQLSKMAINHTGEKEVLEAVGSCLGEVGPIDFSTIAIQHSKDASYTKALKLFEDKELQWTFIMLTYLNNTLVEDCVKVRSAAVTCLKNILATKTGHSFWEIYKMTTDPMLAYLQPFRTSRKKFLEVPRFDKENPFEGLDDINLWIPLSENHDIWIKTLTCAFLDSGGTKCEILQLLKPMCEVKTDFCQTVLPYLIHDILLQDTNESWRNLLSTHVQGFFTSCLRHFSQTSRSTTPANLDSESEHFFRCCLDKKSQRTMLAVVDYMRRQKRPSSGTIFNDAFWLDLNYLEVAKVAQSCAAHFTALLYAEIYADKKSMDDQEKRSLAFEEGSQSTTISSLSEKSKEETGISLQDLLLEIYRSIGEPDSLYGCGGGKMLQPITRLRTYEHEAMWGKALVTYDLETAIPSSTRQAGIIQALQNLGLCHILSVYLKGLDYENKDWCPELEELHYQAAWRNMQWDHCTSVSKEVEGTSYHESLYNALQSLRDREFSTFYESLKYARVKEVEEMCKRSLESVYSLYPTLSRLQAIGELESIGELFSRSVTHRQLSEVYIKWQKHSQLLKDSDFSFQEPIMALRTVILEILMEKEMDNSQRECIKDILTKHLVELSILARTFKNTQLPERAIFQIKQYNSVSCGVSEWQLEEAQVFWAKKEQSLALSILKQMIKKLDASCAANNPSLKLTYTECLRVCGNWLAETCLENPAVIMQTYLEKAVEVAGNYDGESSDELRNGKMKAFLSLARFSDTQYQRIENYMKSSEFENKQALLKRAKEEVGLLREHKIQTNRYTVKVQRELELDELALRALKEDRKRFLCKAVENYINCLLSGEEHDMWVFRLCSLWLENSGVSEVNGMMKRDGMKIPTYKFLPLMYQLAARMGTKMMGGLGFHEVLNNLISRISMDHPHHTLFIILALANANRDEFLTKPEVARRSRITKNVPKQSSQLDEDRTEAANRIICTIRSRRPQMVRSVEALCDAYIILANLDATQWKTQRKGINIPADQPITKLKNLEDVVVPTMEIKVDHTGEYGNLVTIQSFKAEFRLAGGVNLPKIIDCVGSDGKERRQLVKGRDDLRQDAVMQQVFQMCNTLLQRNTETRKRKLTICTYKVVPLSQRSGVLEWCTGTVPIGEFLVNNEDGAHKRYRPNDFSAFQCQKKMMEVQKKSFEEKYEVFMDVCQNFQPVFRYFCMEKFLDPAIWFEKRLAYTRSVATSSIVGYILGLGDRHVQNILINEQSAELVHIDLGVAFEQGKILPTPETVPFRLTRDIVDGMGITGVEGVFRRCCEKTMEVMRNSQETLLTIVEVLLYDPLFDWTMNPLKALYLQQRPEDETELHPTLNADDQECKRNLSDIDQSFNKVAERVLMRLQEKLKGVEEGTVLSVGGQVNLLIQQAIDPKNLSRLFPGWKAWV

Tests used:
ATM [1] = target: T1, ATM (Homo sapiens, UniProt Q13315); assay: Western blot of pATM, pKAP1 and pCHK2 in irradiated H1299 shGFP cells; type: cell-based; details: irradiated (4 Gy) H1299 shGFP knockdown cells, inhibitor 1 h before irradiation, relative to DMSO control
T1 construct: endogenous in cells; host or cells: H1299 shGFP and shATM cells
Protocol: (§1) H1299 non-small cell lung cancer cells, either wild type or stably transfected with short hairpin RNA for ATM (shATM) or GFP (shGFP, as a control) expression knockdown, were kindly gifted by Dr Anderson Ryan at the University of Oxford. All cells were cultured at 37 °C and 5% CO2 in Dulbecco’s modified Eagle medium (DMEM) supplemented with 10% foetal bovine serum (FBS) (Gibco, USA), 2 mM L-glutamine, 100 units/mL penicillin, and 100 µg/mL streptomycin (PSG) (Sigma-Aldrich); knockdown cell lines were additionally supplemented with 0.5 μg/mL puromycin dihydrochloride (Merck Life Science, UK). Cells were originally purchased from ATCC and were authenticated by the provider and by STR profiling. Cells were tested regularly for the absence of mycoplasma contamination and were cultured for a maximum of 20 passages after resuscitation from liquid nitrogen storage.
Western blot analysis was performed to compare the total ATM expression between cell models, in addition to expression of phospho-ATM^S1981 (pATM), phospho-KAP1^S824 (pKAP1), and phospho-CHK2^T68 (pCHK2) expression to assess the effect of irradiation and ATM inhibition on ATM catalytic activity. Cells were irradiated (4 Gy; 0.75 Gy/min) or sham-irradiated and incubated at 37 °C for 1 h before harvesting cells for lysis and blotting (full details in supporting information). […]

ATM [2] = target: T1, ATM; assay: Blocking of [18F]1 cell-associated activity by non-radioactive ATM inhibitors; type: cell-based
Protocol: as §1
Blocking studies followed the same procedure as uptake with 1 h tracer incubation; however, the replacement media contained the blocking agent at the indicated concentrations in no greater than 10% DMSO, and a DMSO control was also run in parallel at the highest DMSO concentration used, followed by incubation at 37 °C and 5% CO2 for 1 h before irradiation.

CN(C)CCCOc1ccc(-c2ccc3ncc4c(c3c2)n(C2CCOCC2)c(=O)n4C)cn1 [AZD0156, 8-{6-[3-(Dimethylamino)propoxy]pyridin-3-yl}-3-methyl-1-(tetrahydro-2 H-pyran-4-yl)-1,3-dihydro-2 H-imidazo[4,5-c]quinolin-2-one]
pATM expression and downstream targets pKAP1 and pCHK2, western blot (ATM [1]): decrease in pATM expression
effect on [18F]1 cell-associated activity at high molar excess (ATM [2]; 1000 nM inhibitor, compared to DMSO control): increase in cell-associated activity
effect on [18F]1 cell-associated activity at lower inhibitor concentrations (ATM [2]; 0.1–10 nM inhibitor, H1299 shATM and shGFP cells): initial blocking effect
